# Values of other authors, collected in patent US20240174671A1, “New 2,3-Dihydro-1H-pyrrolo[3,2-b]pyridine Derivatives as Sigma Ligands” (ACONDICIONAMIENTO TARRASENSE, priority 2021, published 2024).
# Protein sequences, listed by entry. Tags and fused reporters are not part of them.
# UniProt Q99720, whole entry: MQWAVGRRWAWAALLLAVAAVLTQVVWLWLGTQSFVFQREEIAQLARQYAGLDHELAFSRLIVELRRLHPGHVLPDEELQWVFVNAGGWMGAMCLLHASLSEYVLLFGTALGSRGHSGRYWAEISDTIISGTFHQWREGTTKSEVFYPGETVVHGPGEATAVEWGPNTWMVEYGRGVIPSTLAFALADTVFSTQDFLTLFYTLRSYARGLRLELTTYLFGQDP
# Target: sigma-1 (σ1) site (Homo sapiens, UniProt Q99720)
# Details: background statement; cited from earlier work
substance,measurement,value
(+)-SKF-10047,affinity for the sigma-1 (σ1) site,nanomolar affinity
